{"source": "patent US11168131B2", "about": "“Antibody molecule-drug conjugates and uses thereof” (priority 2015, dated 2021)", "key": {"red blood cells": {"test_system": "red blood cells", "test": "Red blood cell hemolysis assay (MLC, PLC)", "assay_type": "cell-based", "details": "for PLC: hemolytic activity"}, "[1]": {"test": "Stability of D- and L-amino acid peptide in human serum", "assay_type": "in vitro ADME", "details": "0%, 2%, 5% or 10% human serum over 60 minutes", "procedure": "The effect of D-amino acids on the stability of antimicrobial peptide in human serum was studied. An exemplary antimicrobial peptide, P297, was used in this study. (D)-P297 contains all D-amino acids and (L)-P297 contains all L-amino acids. The percentages of remaining intact peptides were measured either in the absence of human serum, or in the presence of 2%, 5%, or 10% human serum, over a period of 60 minutes."}}}
{"substance": "GAFGNFLKGVAKKAGLKILSIAQCKLFGTC [peptide 70]", "values": [{"measurement": "PLC", "setting": "red blood cells", "value": 8, "unit": "µg/mL"}]}
{"substance": "GGGKFFRKLKKSVKKRAKEFFKKPRVIGVSIPF [(L)-P297]", "values": [{"measurement": "stability in human serum (remaining intact peptide)", "setting": "[1]", "value": "degraded rapidly (and completely under certain testing conditions)"}]}
{"substance": "GIGKFLKKAKKFGKAFVKILKKGGGGSGGGGS [peptide 24]", "values": [{"measurement": "PLC", "setting": "red blood cells", "value": 512, "unit": "µg/mL"}]}
{"substance": "ALWKTLLKKVLKAAAKGGGGSGGGGS [peptide 30]", "values": [{"measurement": "PLC", "setting": "red blood cells", "value": 512, "unit": "µg/mL"}]}
{"substance": "GGGKFFRKLKKSVKKRAKEFFKKPRVIGVSIPF [(D)-P297]", "values": [{"measurement": "stability in human serum (remaining intact peptide)", "setting": "[1]", "value": "considerably more stable than (L)-P297"}]}
{"substance": "KKLLKWLKKLL [peptide 126]", "values": [{"measurement": "PLC", "setting": "red blood cells", "value": 640, "unit": "µg/mL"}]}
{"substance": "GGG-D-Dab-cyclic(L-Dab-L-Dab-D-Leu-L-Phe-L-Dab-L-Dab-L-Leu) [GGG-Octapeptin]", "values": [{"measurement": "Hemolysis PLC", "setting": "red blood cells; concentration that led to 50% red blood cell lysis", "value": ">128", "unit": "µg/mL"}, {"measurement": "Hemolysis MLC", "setting": "red blood cells; concentration that led to 100% red blood cell lysis", "value": ">128", "unit": "µg/mL"}, {"measurement": "MLC/MIC", "setting": "red blood cells; ratio of MLC to MIC", "value": ">64"}, {"measurement": "PLC/MIC", "setting": "red blood cells; ratio of PLC to MIC", "value": ">64"}]}
